Measurements reported in patent publication US7739055B2, “Methods and systems for generating and evaluating peptides” (priority 2005, dated 2010).

Details: in words

For `CC[C@H](C)[C@H](NC(=O)[C@@H](NC(=O)[C@H](CS)NC(=O)[C@H](C)NC(=O)[C@H](CCCCN)NC(=O)[C@H](CO)NC(=O)[C@H](CCCCN)NC(=O)[C@H](CCCCN)NC(=O)[C@@H](NC(=O)[C@H](Cc1ccccc1)NC(=O)[C@@H](NC(=O)CNC(=O)[C@H](CC(C)C)NC(=O)[C@@H](NC(=O)[C@H](CO)NC(=O)CNC(=O)CN)[C@@H](C)O)C(C)C)C(C)C)C(C)C)C(=O)N[C@H](C(=O)N1CCC[C@H]1C(=O)N[C@@H](Cc1ccc(O)cc1)C(=O)O)C(C)C`, the solubility was “Not soluble”.
